Values quoted from earlier work as cited in patent US20100267635A1, “USE OF PROTEASE INHIBITORS AND GRF MOLECULES IN COMBINATION THERAPY” (THERATECHONOLGIES INC., priority 2009, published 2010).

Set-up: key to the marks not given beside the values
Settings: combination with ritonavir; cited from earlier work

## CCC(=O)N(c1ccccc1)C1CCN(CCc2ccccc2)CC1
  Risk (drug interaction with ritonavir), left-hand column: D

Only a part of the results on these compounds is given; other tests are left out.
